Patent US8927545B2, “Inhibiting Eph B-3 kinase” (Duke University, priority 2009, dated 2015)

The chains behind the UniProt entries cited, without tags or fusion partners. Residues count along the entry.
UniProt P54753, 633-896 limits assumed: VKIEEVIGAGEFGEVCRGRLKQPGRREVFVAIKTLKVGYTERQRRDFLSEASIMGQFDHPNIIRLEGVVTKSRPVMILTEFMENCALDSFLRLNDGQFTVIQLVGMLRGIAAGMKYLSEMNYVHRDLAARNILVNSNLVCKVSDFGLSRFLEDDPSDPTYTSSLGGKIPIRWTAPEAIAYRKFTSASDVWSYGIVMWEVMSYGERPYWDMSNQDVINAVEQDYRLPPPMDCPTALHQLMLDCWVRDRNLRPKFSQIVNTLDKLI

Target: recombinant human EphB3 kinase (Homo sapiens, UniProt P54753)
Test: IC50 for inhibiting EphB3 phosphorylation of the BTK peptide (33P radiometric assay, assay of Examples 1-6)
Type: biochemical
Settings: inhibiting EphB3 phosphorylation of the BTK peptide (SEQ ID NO: 4)

| SMILES | IC50 (Table 1 pyrazolo[1,5-a]pyridine compounds) [µM] | IC50 (Table 2 candidate compounds) [µM] |
| --- | --- | --- |
| CS(=O)(=O)c1ccccc1NC(=O)c1cnn2ccccc12 | > 20 | – |
| O=C(Nc1ccccc1Cl)c1c[nH]c2ccccc12 | – | > 20 |
